Legend:
PIM-1 = PIM-1 (Homo sapiens (Human), UniProt P11309); test: PIM-1 Enzyme Assay; assay type: biochemical; conditions: 35 μM ATP, 0.25 nM PIM-1
Method: The amount of radiolabeled product is then measured by liquid scintillation counting. The final buffer conditions were as follows: 20 mM K^+MOPS, pH 7.4, 10 mM MgCl2, 0.005% Tween-20, 1 mM DTT. […] Incubations were carried out for 60 min at 22° C. and quenched with 75 μL of 200 mM H3PO4, filtered through a Whatman P81 plate and washed (1×200 μL and 5×100 μL ) with 200 mM H3PO4. Liquid scintillation cocktail (50 μL ) was then added per well, and the plate was counted for 30 s/well using a TopCount NXT.
One-μL aliquots of these were then transferred to the assay mixtures above to give a final concentration of DMSO of 2%. […] For each plate, percent of control (POC) values were calculated for each well. IC50's were estimated from the POC's using a standard 4-parameter logistic model. The IC50 is defined as the concentration of inhibitor at which the POC equals 50 for the fitted curve.

By UniProt entry, the sequences of proteins in these tests, tags left out.
UniProt P11309, whole entry, species assumed: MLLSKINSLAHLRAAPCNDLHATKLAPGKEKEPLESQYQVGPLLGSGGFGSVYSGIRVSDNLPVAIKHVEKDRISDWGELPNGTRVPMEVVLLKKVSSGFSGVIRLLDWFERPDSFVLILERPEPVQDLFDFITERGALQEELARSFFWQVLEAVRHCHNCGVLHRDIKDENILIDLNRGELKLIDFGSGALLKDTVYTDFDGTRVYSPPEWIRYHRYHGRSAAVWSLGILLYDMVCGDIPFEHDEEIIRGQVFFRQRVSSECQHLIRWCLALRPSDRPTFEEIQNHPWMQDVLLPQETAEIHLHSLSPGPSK

recombinant rat PIM-3 = recombinant rat PIM-3 (Rattus norvegicus (Rat), UniProt O70444); test: PIM-3 Enzyme Assay; conditions: read-out: PIM-3 IC50; 30 μM ATP, 0.5 nM PIM-3

SMILES: N[C@H]1CC[C@H](Oc2cccc3ccc(-c4nnc5ccccn45)nc23)CC1 [Example 17, (trans)-4-(2-([1,2,4]Triazolo[4,3-a]pyridin-3-yl)quinolin-8-yloxy)cyclohexanamine]
- IC50 (PIM-1): 0.65 nM

SMILES: CC(C)(C)COc1cccc2ccc(-c3nnc4ccccn34)nc12 [Example 23, 2-([1,2,4]triazolo[4,3-a]pyridin-3-yl)-8-(neopentyloxy)quinoline]
- IC50 (recombinant rat PIM-3): 6 nM

Source: US8575145B2, “Triazolopyridine compounds as PIM kinase inhibitors” (Array BioPharma Inc., priority 2008, dated 2013)
